These results are taken from ChEMBL document CHEMBL5727463, “Oligomer-opioid agonist conjugates” (2019).

By UniProt entry, the sequences of proteins in these tests, tags left out.
UniProt P41143, whole entry: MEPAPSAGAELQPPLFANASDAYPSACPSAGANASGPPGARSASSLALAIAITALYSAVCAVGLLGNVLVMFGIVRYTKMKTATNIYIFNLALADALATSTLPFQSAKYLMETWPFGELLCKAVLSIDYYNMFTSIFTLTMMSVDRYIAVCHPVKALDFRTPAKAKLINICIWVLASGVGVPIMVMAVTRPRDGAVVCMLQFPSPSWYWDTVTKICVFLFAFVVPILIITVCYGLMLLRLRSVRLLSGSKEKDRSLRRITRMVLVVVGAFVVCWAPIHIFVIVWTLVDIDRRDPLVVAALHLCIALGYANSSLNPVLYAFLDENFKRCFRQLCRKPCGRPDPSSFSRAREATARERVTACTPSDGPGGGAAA

In this assay the target is Delta-type opioid receptor (Homo sapiens, UniProt P41143). Kind of assay: Cells were plated in 24 well plates at a density of 0.2-0.3*10^6 cells/well and washed with assay buffer containing 50 mM Tris.HCl and 5 mM MgCl2 (pH 7.4). […] Incubations were carried out for two hours at room temperature using triplicate wells at each concentration. […] Binding data assays were analyzed using GraphPad Prism 4.0 and IC50 is generated by non-linear regression from dose-response curves. Ki values were calculated using the Cheng Prusoff equation using the Kd values from saturation isotherms as follows: Ki=IC50/(1+[Ligand]/Kd). In kind it is cell-based.

The Ki is the dissociation constant of the complex between target and ligand, obtained from inhibition or displacement. As for `COCCOCCOCCOCCOCCOCCOCCOCCOCCO[C@H]1CC[C@@]2(O)[C@H]3Cc4ccc(O)c5c4[C@@]2(CCN3CC2CCC2)[C@H]1O5`, the Ki was 158 nM.
